Experimental data: PubChem BioAssay AID624172 (National Center for Advancing Translational Sciences (NCATS), 2012)
Hit rate of the full screen: of about 380,000 compounds, about 25 (0.007%) were called active. Listed are the inconclusive results; actives and inactives stand elsewhere. Calls come from the whole dose curve; as a rule, active = well fitted activation curve with a large enough effect; inconclusive = small, poorly fitted or top-dose-only effect; inactive = no such curve, though single readings can be large or run the other way.

Sequences of proteins named here, by UniProt entry; tags and fusion partners are left off.
UniProt P43220, whole entry, looked up: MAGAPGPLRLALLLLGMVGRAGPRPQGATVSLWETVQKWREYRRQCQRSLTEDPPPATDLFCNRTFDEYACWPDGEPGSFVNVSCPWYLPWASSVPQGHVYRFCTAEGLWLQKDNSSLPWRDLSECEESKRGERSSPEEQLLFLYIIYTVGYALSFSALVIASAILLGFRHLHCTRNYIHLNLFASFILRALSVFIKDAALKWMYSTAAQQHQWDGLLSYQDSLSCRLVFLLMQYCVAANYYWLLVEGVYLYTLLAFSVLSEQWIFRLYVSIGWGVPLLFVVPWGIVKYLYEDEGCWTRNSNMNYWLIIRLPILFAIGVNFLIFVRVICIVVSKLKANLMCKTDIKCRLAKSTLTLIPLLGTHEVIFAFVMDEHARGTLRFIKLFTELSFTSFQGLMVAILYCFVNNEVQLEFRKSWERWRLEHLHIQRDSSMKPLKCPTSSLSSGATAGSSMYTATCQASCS

Molecular target: Glucagon-like peptide 1 receptor (Homo sapiens) (UniProt P43220)
Assay: qHTS of GLP-1 Receptor Agonists
Settings: HEK293 GLP-1R CRE-luciferase, luminescence, 4-6 h; cells express a hypersensitive GLP-1R form
Source text: The overall goal of this project was to develop a novel assay for discovering small molecule ligands for class B1 G protein-coupled receptors (GPCRs). Very few agonists (or inverse agonists) with generally weak activity for this entire group of physiologically important receptors are known to date. To establish proof-of-principle that this critical bottleneck can be overcome with a suitable screening approach, our studies focused on the class B1 receptor for glucagon-like peptide-1 (GLP-1R), a potential therapeutic target for diabetes and neurodegenerative disease.
The assay was developed in a "mix and measure" format using a cell-based functional readout. Toward this goal, stably transfected HEK293 cell clones were established that co-express (i) a cAMP-responsive luciferase reporter gene, and (ii) GLP-1Rs that upon ligand interaction either stimulate (agonists) or inhibit (inverse agonists) luciferase activity. […]
In a white solid 1536-well plate, 6 uL of cells are dispensed in DMEM without phenol red, 10% Nu serum, and 1% pen-strep medium. […] After a 4-6 hr incubation at37 deg C and 5% CO2, 3 uL of detection reagent are added and after a 12 min incubation at RT, a luminescent read is obtained on the ViewLux.

Compound | Potency
Cn1c(=O)[nH]c(=O)c2c1nc(Br)n2Cc1ccccc1 | inconclusive: 35.5 µM
